According to patent publication US10214520B2, “Substituted azaspiro(4.5)decane derivatives” (priority 2014, dated 2019):
Read-outs that look alike come from different tables or passages of the source.

Chains of the proteins cited; added tags and fusions are not shown. Lines headed by an entry give the natural chain unless they say otherwise; changes in a name come on top.
UniProt P35372, whole entry, looked up: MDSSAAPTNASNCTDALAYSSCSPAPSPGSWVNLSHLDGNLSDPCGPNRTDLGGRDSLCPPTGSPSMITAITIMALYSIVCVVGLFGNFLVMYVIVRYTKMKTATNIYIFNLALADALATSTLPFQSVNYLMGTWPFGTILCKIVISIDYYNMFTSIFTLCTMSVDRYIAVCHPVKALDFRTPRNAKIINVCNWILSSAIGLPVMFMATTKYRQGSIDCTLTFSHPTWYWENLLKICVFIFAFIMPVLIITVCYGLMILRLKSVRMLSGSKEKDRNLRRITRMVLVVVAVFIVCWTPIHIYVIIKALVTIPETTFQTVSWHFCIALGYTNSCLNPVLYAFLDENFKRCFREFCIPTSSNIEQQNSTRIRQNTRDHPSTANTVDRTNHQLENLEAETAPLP
UniProt P41146: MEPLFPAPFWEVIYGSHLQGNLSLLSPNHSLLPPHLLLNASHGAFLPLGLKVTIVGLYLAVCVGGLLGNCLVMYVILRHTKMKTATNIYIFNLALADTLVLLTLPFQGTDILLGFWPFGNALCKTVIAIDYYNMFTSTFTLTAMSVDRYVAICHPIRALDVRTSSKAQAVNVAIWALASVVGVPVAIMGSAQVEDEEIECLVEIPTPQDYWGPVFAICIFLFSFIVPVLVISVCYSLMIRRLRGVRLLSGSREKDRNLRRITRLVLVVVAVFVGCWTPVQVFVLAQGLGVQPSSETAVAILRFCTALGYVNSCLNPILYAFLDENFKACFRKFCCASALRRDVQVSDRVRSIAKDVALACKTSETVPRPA

Experiments:
[1] = molecular target: human μ opiate receptor (Homo sapiens, UniProt P35372); experiment: μ opiate receptor binding assay with [3H]-naloxone, membrane preparation of CHO-K1 cells (WGA-SPA beads); settings: for MOP % Inhibition @1 μM / % inhibition (μ) [1 μM]: test concentration 1 μM
[2] = molecular target: ORL1 receptor (Homo sapiens, UniProt P41146); settings: for ORL1 % Inhibition @ 1 μM / % inhibition (ORL1) [1 μM]: test concentration 1 μM
[3] = read-out: Ki (μ) mean [μm], mean
[4] = read-out: Ki (ORL1) mean [μm], mean

Row | Molecule | Ki ([1]; read-out: MOP Ki) [nM] | MOP % Inhibition @1 μM [1] [%] | Ki ([2]; read-out: ORL1 Ki) [nM] | ORL1 % Inhibition @ 1 μM [2] [%] | Ki [1, 3] [nM] | % inhibition (μ) [1 μM] [1] [%] | Ki [2, 4] [nM] | % inhibition (ORL1) [1 μM] [2] [%]
1 | CN(C)C1(c2ccccc2)CCC2(CCN(C(=O)Cc3ccncc3)C2)CC1 (stereo not drawn) | 25.5 | 98 | 45.5 | 76 | – | – | – | –
2 | CN(C)[C@]1(c2ccccc2)CC[C@]2(CC1)CC(=O)N(CCC1(C(=O)O)CCOCC1)C2 | 347 | 65 | 1480 | 24 | – | – | – | –
3 | COc1cnc(NC(=O)CN2C[C@]3(CC[C@@](c4ccccc4)(N(C)C)CC3)CC2=O)cn1 | 102 | 76 | 885 | 24 | – | – | – | –
4 | CN(C)[C@]1(c2ccccc2)CC[C@]2(CC1)CC(=O)N(CC(=O)NCCCC#N)C2 | 11.4 | 96 | 31 | 76 | – | – | – | –
5 | CCCCNC(=O)CN1CC2(CCC(c3ccccc3)(N(C)C)CC2)CC1=O (stereo not drawn) | 1.4 | 101 | 2.3 | 93 | – | – | – | –
6 | CN(C)[C@]1(c2ccccc2)CC[C@]2(CC1)CC(=O)N(CC(=O)NCCC(C)(C)O)C2 | 205 | 83 | 150 | 52 | – | – | – | –
7 | CN(C)C1(c2ccccc2)CCC2(CCN(C(=O)CCCc3ccccn3)C2)CC1 (stereo not drawn) | 4.9 | 101 | 52.3 | 57 | – | – | – | –
8 | Cc1ccc(N2C[C@]3(CC[C@@](c4ccccc4)(N(C)C)CC3)CC2=O)nn1 | 64.5 | – | 58 | – | – | – | – | –
9 | CN(C)[C@]1(c2ccccn2)CC[C@]2(CC1)CC(=O)N(CCCC(N)=O)C2 | – | 31 | – | 11 | – | – | – | –
10 | CN(C)[C@]1(c2ccccc2)CC[C@]2(CC1)CC(=O)N(CCC(C)(C)C(=O)NCc1cncnc1)C2 | 23.5 | 96 | 54 | 89 | – | – | – | –
11 | COCCCNC(=O)CN1C[C@]2(CC[C@@](c3ccccc3)(N(C)C)CC2)CC1=O | 33 | 88 | 42 | 65 | – | – | – | –
12 | COCCNC(=O)CN1CC2(CCC(c3ccccc3)(N(C)C)CC2)CC1=O (stereo not drawn) | 9.7 | 100 | 17.5 | 74 | – | – | – | –
13 | CN(C)C1(c2cccs2)CCC2(CCN(Cc3ccncn3)C2)CC1 (stereo not drawn) | – | – | – | – | 15 | 96.5 | 13 | 79.5
14 | CN(C)C1(c2cccs2)CCC2(CCN(CC(=O)N3CCC3)C2)CC1 (stereo not drawn) | – | – | – | – | 2.55 | 98 | 24.5 | 78.5
15 | Cc1cnc(N2C[C@]3(CC[C@](c4ccccc4)(N(C)C)CC3)CC2=O)cn1 | 60 | – | 84.5 | – | – | – | – | –
16 | CN(C)[C@]1(c2ccccc2)CC[C@]2(CC1)CC(=O)N(c1ccccc1C#N)C2 | 15.5 | 96 | 190 | 47 | – | – | – | –
17 | Cis-3-[8-Dimethylamino-8-(3-methoxy-propyl)-3-oxo-2-azaspiro[4.5]decan-2-yl]-propionamide | – | 15 | – | 12 | – | – | – | –
18 | CN(C)[C@]1(c2ccccn2)CC[C@]2(CC1)CC(=O)N(CC(=O)OC(C)(C)C)C2 | 8.6 | 99 | 36 | 79 | – | – | – | –
19 | COc1cnc(N2C[C@]3(CC[C@](c4ccccc4)(N(C)C)CC3)CC2=O)cn1 | 2000 | – | 255 | – | – | – | – | –
20 | Cis-N-[3-(8-Dimethylamino-3-oxo-8-phenyl-2-azaspiro[4.5]decan-2-yl)-propyl]-5-methyl-oxazole-4-carboxylic acid amide | 64 | 95 | 125 | 59 | – | – | – | –
21 | CN(C)C1(c2ccccc2)CCC2(CCN(C(=O)c3cccnc3)C2)CC1 (stereo not drawn) | – | – | – | – | 390 | 51 | 245 | 35
22 | cis-3-(8-Dimethylamino-3-oxo-8-pyridin-2-yl-2-azaspiro[4.5]decan-2-yl)-2,2-dimethyl-propionic acid hydrochloride | 3700 | 26 | – | 5 | – | – | – | –
23 | CN(C)C1(c2ccccc2)CCC2(CC1)CC(=O)N(CC(C)(C)C(=O)N1CCNC(=O)C1)C2 (stereo not drawn) | – | 82 | 255 | 41 | – | – | – | –
24 | CN(C)C1(c2ccccc2)CCC2(CCN(C(=O)CC(N)=O)C2)CC1 (stereo not drawn) | 370 | 78 | 825 | 54 | – | – | – | –
25 | CCCCC1(N(C)C)CCC2(CCN(C(=O)Cc3ccc(C)s3)C2)CC1 (stereo not drawn) | – | – | – | – | 13 | 97 | 170 | 46.5
26 | CN(C)C1(c2ccccc2)CCC2(CC1)CN(C(=O)OC(C)(C)C)C(=O)C2Cc1ccccc1 (stereo not drawn) | 9.3 | 98 | 8.6 | 87 | – | – | – | –

Row | Molecule | Ki ([1]; read-out: MOP Ki) [nM] | MOP % Inhibition @1 μM [1] [%] | Ki ([2]; read-out: ORL1 Ki) [nM] | ORL1 % Inhibition @ 1 μM [2] [%] | Ki [1, 3] [nM] | % inhibition (μ) [1 μM] [1] [%] | Ki [2, 4] [nM] | % inhibition (ORL1) [1 μM] [2] [%]
27 | CN1CCC(CN2CC3(CCC(c4cccs4)(N(C)C)CC3)CC2=O)CC1 (stereo not drawn) | – | – | – | – | 19.5 | 95.5 | 96.5 | 63
28 | Cis-2,2-Dimethyl-3-(8-methylamino-3-oxo-8-pyridin-2-yl-2-azaspiro[4.5]decan-2-yl)-propionamide 2,2,2-trifluoro acetate | 4650 | 28 | – | 7 | – | – | – | –
29 | CN(C)[C@]1(c2ccccc2)CC[C@]2(CC1)CC(=O)N(CCC(C)(C)C(=O)NCCO)C2 | 31.5 | 93 | 76.5 | 72 | – | – | – | –
30 | CN(C)[C@]1(c2ccccc2)CC[C@]2(CC1)CC(=O)N(Cc1ccccn1)C2 | 8 | 99 | 10 | 74 | – | – | – | –
31 | CN(C)[C@]1(c2ccccc2)CC[C@]2(CC1)CC(=O)N(CC(=O)NCC(C)(C)O)C2 | 64 | 78 | 103 | 73 | – | – | – | –
32 | CC(=O)N1CC(CN2CCC3(CCC(c4cccs4)(N(C)C)CC3)C2)C1 (stereo not drawn) | – | – | – | – | 15.5 | 93.5 | 105 | 52
33 | Cc1nccnc1C(=O)NCCCN1C[C@]2(CC[C@@](c3ccccc3)(N(C)C)CC2)CC1=O | 36 | 90 | 390 | 34 | – | – | – | –
34 | CC(=O)N1CC(CN2CCC3(CCC(c4ccccc4)(N(C)C)CC3)C2)C1 (single isomer, unassigned) | – | – | – | – | 26.5 | 93.5 | 55 | 71.5
35 | Cc1nccc(CNC(=O)C(C)(C)CCN2C[C@]3(CC[C@@](c4ccccc4)(N(C)C)CC3)CC2=O)n1 | 52.5 | 88 | 175 | 67 | – | – | – | –
36 | CN(C)C1(c2ccccc2)CCC2(CCN(C(=O)CCc3ccccc3)C2)CC1 (stereo not drawn) | 1.3 | 96 | 0.3 | 95 | – | – | – | –
37 | CN(C)[C@]1(c2ccccc2)CC[C@]2(CC1)CC(=O)N(CCCC(=O)N1CCN(S(C)(=O)=O)CC1)C2 | 240 | 72 | 275 | 37 | – | – | – | –
38 | COC(=O)CN1C[C@]2(CC[C@@](c3ccccc3)(N(C)C)CC2)CC1=O | 29.5 | 96 | 24.5 | 80 | – | – | – | –
39 | COCCCNC(=O)CCN1C[C@]2(CC[C@@](c3ccccc3)(N(C)C)CC2)CC1=O | 70 | 90 | 330 | 18 | – | – | – | –
40 | CN(C)[C@]1(c2ccccc2)CC[C@]2(CC1)CC(=O)N(CC(=O)NCC(N)=O)C2 | 190 | 72 | 395 | 29 | – | – | – | –
41 | COCCNC(=O)CCN1C[C@]2(CC[C@@](c3ccccc3)(N(C)C)CC2)CC1=O | 36.5 | 90 | 220 | 56 | – | – | – | –
42 | COc1cccnc1N1C[C@]2(CC[C@](c3ccccc3)(N(C)C)CC2)CC1=O | 1360 | – | 340 | – | – | – | – | –
43 | CN(C)[C@]1(c2ccccc2)CC[C@]2(CC1)CC(=O)N(CC(C)(C)C(=O)NCCc1cncnc1)C2 | – | 89 | 770 | 28 | – | – | – | –
44 | CN(C)[C@]1(c2ccccc2)CC[C@]2(CC1)CC(=O)N(CC(=O)NCc1ccncc1)C2 | 52 | 94 | 46.5 | 79 | – | – | – | –
45 | CN(C)[C@]1(c2ccccc2)CC[C@]2(CC1)CC(=O)N(c1ccc(C#N)cc1)C2 | 175 | 85 | 465 | 32 | – | – | – | –
46 | Cis-4-[8-Dimethylamino-8-(3-methoxy-propyl)-3-oxo-2-azaspiro[4.5]decan-2-yl]-2,2-dimethyl-butyramide 2,2,2-trifluoro acetate | 2800 | 32 | – | 1 | – | – | – | –
47 | (8-Cyclopentyl-8-dimethylamino-3-azaspiro[4.5.]decan-3-ylphenylmethanone | – | – | – | – | – | 96.5 | – | 72
48 | CN(C)[C@]1(c2ccccc2)CC[C@]2(CC1)CC(=O)N(CCC(C)(C)C(=O)Nc1ccncc1)C2 | 8 | 86 | 29.5 | 85 | – | – | – | –
49 | COc1ccc(CCC(=O)N2CCC3(CCC(c4ccccc4)(N(C)C)CC3)C2)cc1 (stereo not drawn) | 128 | 90 | 283 | 53 | – | – | – | –
50 | CN(C)C1(c2ccccc2)CCC2(CCN(Cc3cccnc3)C2)CC1 (stereo not drawn) | – | – | – | – | 51.5 | 89 | 15.5 | 80
51 | CN(C)[C@]1(c2ccccc2)CC[C@]2(CC1)CC(=O)N(CCC1(C(=O)OC(C)(C)C)CCOCC1)C2 | 2.9 | 101 | – | – | – | – | – | –
